Laboratory results taken from US20160257749A1, “ANTI-TIM3 ANTIBODIES AND METHODS OF USE” (Hoffmann-La Roche, Inc., priority 2014, published 2016).

Tested on: TIM-3 pathway
Assay: Mixed lymphocyte reaction (MLR), IFN-gamma secretion
Type: cell-based, human
Conditions: MLR + IL-2 20 U/ml
Procedure: T cells in the assay were tested for activation and IFN-gamma secretion in the presence or absence of an anti-TIM-3 mAbs.
Human Lymphocytes were isolated from peripheral blood of healthy donor by density gradient centrifugation using Leukosep (Greiner Bio One, 227 288). Briefly, heparinized blood were diluted with the three fold volume of PBS and 25 ml aliquots of the diluted blood were layered in 50 ml Leukosep tubes. After centrifugation at 800×g for 15 min at room temperature (w/o break) the lymphocyte containing fractions were harvested, washed in PBS and used directly in functional assay or resuspended in freezing medium (10% DMSO, 90% FCS) at 1.0E+07 cells/ml and stored in liquid nitrogen. […] The levels of IFN-gamma were measured using OptEIA ELISA kit (BD Biosciences).

Substance: IL-2: rec hu IL-2 (20 EU/ml) used as positive control in MLR [reference compound]
- Percentage of IFNgamma release, positive control set as 100%: 100%
